Legend:
hCA IX = hCA IX (Homo sapiens, UniProt Q16790); test: CA-catalysed CO2 hydration stopped-flow inhibition assay, hCA IX; conditions: for Ki: Ki (nM) hCA IX, stopped-flow CO2 hydration, mean ± standard error, three assays
hCA XII = hCA XII (Homo sapiens, UniProt O43570); test: CA-catalysed CO2 hydration stopped-flow inhibition assay, hCA XII

Amino acid sequences for entries named in this document (tags omitted). Residues count along the entry.
UniProt O43570, 25-354: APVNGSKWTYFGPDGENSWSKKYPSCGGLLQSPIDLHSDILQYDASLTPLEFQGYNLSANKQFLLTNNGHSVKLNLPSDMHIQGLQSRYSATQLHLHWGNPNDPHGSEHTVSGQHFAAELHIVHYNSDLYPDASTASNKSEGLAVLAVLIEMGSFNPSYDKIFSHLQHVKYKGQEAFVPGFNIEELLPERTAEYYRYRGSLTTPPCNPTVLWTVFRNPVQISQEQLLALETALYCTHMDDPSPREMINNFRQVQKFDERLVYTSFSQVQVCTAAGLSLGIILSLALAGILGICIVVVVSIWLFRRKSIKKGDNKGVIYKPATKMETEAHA

SMILES	Ki (hCA IX) [nM]	Selectivity Ratio A = hCA II/IX (hCA IX)	Selectivity Ratio B = hCA II/XII (hCA XII)
NS(=O)(=O)c1ccc(N2C(=O)c3c(Cl)c(Cl)c(Cl)c(Cl)c3C2=O)cc1 [Compound 6, 4-(4,5,6,7-tetrachloro-1,3-dioxoisoindolin-2-yl) benzenesulphonamide]	9.7 ± 0.8	–	–
NS(=O)(=O)c1ccc(CCN2C(=O)c3c(Cl)c(Cl)c(Cl)c(Cl)c3C2=O)cc1 [Compound 8, 4-(2-(4,5,6,7-tetrachloro-1,3-dioxoisoindolin-2-yl)ethyl)benzenesulphonamide]	53 ± 3	–	–
NS(=O)(=O)c1ccc(N2C(=O)c3c(Cl)c(Cl)c(Cl)c(Cl)c3C2=O)c(F)c1 [Compound 11, 3-fluoro-4-(4,5,6,7-tetrachloro-1,3-dioxoisoindolin-2-yl) benzenesulphonamide]	–	0.039	0.243
NS(=O)(=O)c1ccc(N2C(=O)c3c(Cl)c(Cl)c(Cl)c(Cl)c3C2=O)c(Cl)c1 [Compound 12, 3-chloro-4-(4,5,6,7-tetrachloro-1,3-dioxoisoindolin-2-yl)benzenesulphonamide]	–	0.1	0.223
NS(=O)(=O)c1ccc(N2C(=O)c3c(Cl)c(Cl)c(Cl)c(Cl)c3C2=O)c(Br)c1 [Compound 13, 3-bromo-4-(4,5,6,7-tetrachloro-1,3-dioxoisoindolin-2-yl) benzenesulphonamide]	–	0.06	0.024

From paper PMC8308639, “Synthesis and Human Carbonic Anhydrase I, II, IX, and XII Inhibition Studies of Sulphonamides Incorporating Mono-, Bi- and Tricyclic Imide Moieties” (Pharmaceuticals, 2021)
